Data from patent US20150354009A1, “COLORECTAL CANCER CLASSIFICATION WITH DIFFERENTIAL PROGNOSIS AND PERSONALIZED THERAPEUTIC RESPONSES” (ECOLE POLYTECHNIQUE FEDERALE DE LAUSANNE (EPFL), priority 2012, published 2015).

Test system: CRC cell lines
Test: Drug response in cell lines (CellTiter-Glo proliferation, 72 h)
Format: cell-based, human
Details: percent proliferation with 3.4 μg cetuximab, normalized to vehicle-treated cells (FIG. 3B)
Procedure: Colon cancer cell lines were grown in DMEM (Gibco, USA) plus 10% FBS (Invitrogen, USA) without antibiotics/antimycotics. All the cell lines were confirmed to be negative for mycoplamsa by PCR (VenorGeM kit, Sigma, USA) prior to use and were tested monthly.
Proliferation was monitored using CellTiter-Glo® assay kit according to the manufacturer's instruction (Promega, Dubendorf, Switzerland) on day 3 (72 h).

Substance: cetuximab
- sensitivity to cetuximab in the panel of CRC cell lines by subtype: cell lines sensitive to cetuximab were only present within the TA subtype
